Protein sequences, listed by entry. Tags and fused reporters are not part of them. Residues count along the entry.
UniProt P03887, whole entry: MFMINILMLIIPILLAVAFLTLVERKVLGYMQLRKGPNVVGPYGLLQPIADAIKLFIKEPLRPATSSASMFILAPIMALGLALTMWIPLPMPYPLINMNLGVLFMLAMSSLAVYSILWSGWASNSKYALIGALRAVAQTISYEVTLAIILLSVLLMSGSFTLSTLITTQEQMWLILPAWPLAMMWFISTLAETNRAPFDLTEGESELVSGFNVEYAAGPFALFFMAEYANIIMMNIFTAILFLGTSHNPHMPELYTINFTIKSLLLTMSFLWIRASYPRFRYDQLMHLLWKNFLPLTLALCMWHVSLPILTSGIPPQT
UniProt P17694, 34-463: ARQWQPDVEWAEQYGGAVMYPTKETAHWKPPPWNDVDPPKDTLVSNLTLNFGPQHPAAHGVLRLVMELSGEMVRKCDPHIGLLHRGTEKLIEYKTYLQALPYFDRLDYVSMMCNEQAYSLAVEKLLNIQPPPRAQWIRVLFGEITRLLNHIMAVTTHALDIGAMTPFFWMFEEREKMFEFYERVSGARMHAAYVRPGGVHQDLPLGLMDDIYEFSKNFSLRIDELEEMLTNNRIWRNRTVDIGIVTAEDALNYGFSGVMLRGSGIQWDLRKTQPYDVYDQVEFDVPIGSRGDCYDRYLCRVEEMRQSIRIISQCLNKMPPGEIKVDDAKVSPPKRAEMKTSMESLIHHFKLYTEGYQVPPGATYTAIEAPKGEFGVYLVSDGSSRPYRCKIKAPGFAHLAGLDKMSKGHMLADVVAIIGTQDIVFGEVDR
UniProt P42026, 38-216: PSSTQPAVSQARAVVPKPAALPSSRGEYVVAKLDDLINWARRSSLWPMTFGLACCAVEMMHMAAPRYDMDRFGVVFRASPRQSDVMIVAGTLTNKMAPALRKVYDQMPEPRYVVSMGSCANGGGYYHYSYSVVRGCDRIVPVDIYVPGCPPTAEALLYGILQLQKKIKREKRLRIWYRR

According to publication PMC11079024, “Identification of a family of species-selective complex I inhibitors as potential anthelmintics” (Nature Communications, 2024):

Assays:
[1] = biological target: B. taurus (heart) complex I (Bos taurus, UniProt P03887+P17694+P42026); assay type: biochemical; settings: for in vitro complex I activity relative to solvent control: B. taurus (heart) mitochondria, single replicate
[2] = system: P. hermaphrodita complex I; assay: In vitro complex I activity assay, P. hermaphrodita mitochondria; assay type: biochemical, Phasmarhabditis hermaphrodita

**Q.** How did the “in vitro complex I activity relative to solvent control” value ([1]; 1.5 µM) turn out when CC(C)Cc1ccc(C(C)c2nc3ccccc3n2C)cc1 (centres unmarked) [NPD8790] was run?
**A.** Its value is 108.615% and 114.555% and 94.027% and 109.488%.

**Q.** And the “in vitro complex I activity relative to solvent control” value ([1]; 3 µM)?
**A.** The value was 105.743% and 114.475% and 92.946% and 103.733%.

**Q.** What about the “in vitro complex I activity relative to solvent control” value ([1]; 7.5 µM) of the same compound?
**A.** Its value is 102.567% and 109.904% and 86.068% and 95.145%.

**Q.** And the “in vitro complex I activity relative to solvent control” value ([1]; 15 µM)?
**A.** Its value is 82.876% and 90.607% and 69.676% and 74.384%.

**Q.** And the “in vitro complex I activity relative to solvent control” value ([1]; 37.5 µM)?
**A.** Its value is 49.756% and 32.716% and 30.663%.

**Q.** And the “in vitro complex I activity relative to solvent control” value ([1]; 75 µM)?
**A.** Its value is 6.165% and 16.790% and 16.865% and 14.475%.

**Q.** What about the “Complex I activity, dose-response data” value ([1]; B. taurus, dose 0.025 µM, individual replicates (Rep)) of the same compound?
**A.** The value was 115.572.

**Q.** What about the “B. taurus: C. elegans IC50 Fold Change (Complex I IC50 ~Fold Change)” value ([1]; heart mitochondria) of the same compound?
**A.** Its value is 11.6 and > 10 and 11.56.

**Q.** And the “Complex I IC50 ~Fold Change” value ([1]; heart mitochondria)?
**A.** The value was 11.56.

**Q.** What about the “IC50 Fold change” value ([1]; heart mitochondria) of the same compound?
**A.** Its value is 11.56.

**Q.** What about the “in vitro complex I activity relative to solvent control” value ([2]; 0.0001 µM, Mean) of the same compound?
**A.** Its value is 110.924%.

**Q.** What about the “in vitro complex I activity relative to solvent control” value ([2]; 0.0001 µM, single replicate) of the same compound?
**A.** Its value is 120.583% and 108.711% and 103.477%.

**Q.** What about the “in vitro complex I activity relative to solvent control” value ([2]; 0.0005 µM, Mean) of the same compound?
**A.** Its value is 123.891%.

**Q.** What about the “in vitro complex I activity relative to solvent control” value ([2]; 0.0005 µM, single replicate) of the same compound?
**A.** Its value is 118.727% and 144.312% and 108.635%.

**Q.** And the “in vitro complex I activity relative to solvent control” value ([2]; 0.001 µM, Mean)?
**A.** Its value is 103.622%.

**Q.** And the “in vitro complex I activity relative to solvent control” value ([2]; 0.001 µM, single replicate)?
**A.** Its value is 95.252% and 119.501% and 96.112%.

**Q.** What about the “in vitro complex I activity relative to solvent control” value ([2]; 0.0025 µM, Mean) of the same compound?
**A.** Its value is 105.133%.

**Q.** What about the “in vitro complex I activity relative to solvent control” value ([2]; 0.0025 µM, single replicate) of the same compound?
**A.** Its value is 100.747% and 116.799% and 97.853%.

**Q.** And the “in vitro complex I activity relative to solvent control” value ([2]; 0.005 µM, Mean)?
**A.** Its value is 118.617%.

**Q.** What about the “in vitro complex I activity relative to solvent control” value ([2]; 0.005 µM, single replicate) of the same compound?
**A.** Its value is 119.619% and 121.920% and 114.313%.

**Q.** And the “in vitro complex I activity relative to solvent control” value ([2]; 0.013 µM, Mean)?
**A.** Its value is 106.866%.

**Q.** And the “in vitro complex I activity relative to solvent control” value ([2]; 0.013 µM, single replicate)?
**A.** The value was 111.256% and 113.417% and 95.924%.

**Q.** What about the “in vitro complex I activity relative to solvent control” value ([2]; 0.025 µM, Mean) of the same compound?
**A.** The value was 111.679%.

**Q.** And the “in vitro complex I activity relative to solvent control” value ([2]; 0.025 µM, single replicate)?
**A.** Its value is 113.063% and 115.968% and 106.005%.

**Q.** And the “in vitro complex I activity relative to solvent control” value ([2]; 0.06 µM, Mean of replicates)?
**A.** The value was 118.982%.

**Q.** And the “in vitro complex I activity relative to solvent control” value ([2]; 0.06 µM, single replicate)?
**A.** Its value is 137.771% and 122.148% and 97.026%.

**Q.** And the “in vitro complex I activity relative to solvent control” value ([2]; 0.063 µM, Mean)?
**A.** Its value is 110.716%.

**Q.** What about the “in vitro complex I activity relative to solvent control” value ([2]; 0.063 µM, single replicate) of the same compound?
**A.** Its value is 126.946% and 113.171% and 92.030%.

**Q.** What about the “in vitro complex I activity relative to solvent control” value ([2]; 0.125 µM, Mean) of the same compound?
**A.** The value was 103.927%.

**Q.** And the “in vitro complex I activity relative to solvent control” value ([2]; 0.125 µM, single replicate)?
**A.** The value was 118.679% and 101.285% and 91.817%.

**Q.** And the “in vitro complex I activity relative to solvent control” value ([2]; 0.13 µM, Mean of replicates)?
**A.** Its value is 109.002%.

**Q.** And the “in vitro complex I activity relative to solvent control” value ([2]; 0.13 µM, single replicate)?
**A.** The value was 130.134% and 101.338% and 95.535%.

**Q.** And the “in vitro complex I activity relative to solvent control” value ([2]; 0.313 µM, Mean)?
**A.** Its value is 112.221%.

**Q.** What about the “in vitro complex I activity relative to solvent control” value ([2]; 0.313 µM, Mean of replicates) of the same compound?
**A.** Its value is 120.745%.

**Q.** And the “in vitro complex I activity relative to solvent control” value ([2]; 0.313 µM, single replicate)?
**A.** The value was 133.127% and 114.716% and 114.392% and 123.548% and 108.409% and 104.706%.

**Q.** What about the “in vitro complex I activity relative to solvent control” value ([2]; 0.625 µM, Mean) of the same compound?
**A.** Its value is 67.375%.

**Q.** What about the “in vitro complex I activity relative to solvent control” value ([2]; 0.625 µM, Mean of replicates) of the same compound?
**A.** Its value is 64.457%.

**Q.** What about the “in vitro complex I activity relative to solvent control” value ([2]; 0.625 µM, single replicate) of the same compound?
**A.** Its value is 67.387% and 72.409% and 53.576% and 75.221% and 71.892% and 55.012%.

**Q.** What about the “in vitro complex I activity relative to solvent control” value ([2]; 1.5 µM, Mean) of the same compound?
**A.** Its value is 47.568%.

**Q.** And the “in vitro complex I activity relative to solvent control” value ([2]; 1.5 µM, Mean of replicates)?
**A.** Its value is 44.163%.

**Q.** And the “in vitro complex I activity relative to solvent control” value ([2]; 1.5 µM, single replicate)?
**A.** Its value is 35.391% and 54.358% and 42.741% and 42.334% and 55.634% and 44.736%.

**Q.** And the “in vitro complex I activity relative to solvent control” value ([2]; 3 µM, Mean)?
**A.** The value was 45.922%.

**Q.** And the “in vitro complex I activity relative to solvent control” value ([2]; 3 µM, Mean of replicates)?
**A.** The value was 43.695%.

**Q.** And the “in vitro complex I activity relative to solvent control” value ([2]; 3 µM, single replicate)?
**A.** Its value is 26.286% and 59.986% and 44.813% and 34.824% and 59.458% and 43.485%.

**Q.** What about the “in vitro complex I activity relative to solvent control” value ([2]; 7.5 µM, Mean) of the same compound?
**A.** The value was 35.492%.

**Q.** And the “in vitro complex I activity relative to solvent control” value ([2]; 7.5 µM, Mean of replicates)?
**A.** Its value is 37.467%.

**Q.** What about the “in vitro complex I activity relative to solvent control” value ([2]; 7.5 µM, single replicate) of the same compound?
**A.** The value was 33.539% and 39.671% and 39.191% and 30.926% and 39.887% and 35.664%.

**Q.** And the “in vitro complex I activity relative to solvent control” value ([2]; 15 µM, Mean)?
**A.** The value was 15.932%.

**Q.** And the “in vitro complex I activity relative to solvent control” value ([2]; 15 µM, Mean of replicates)?
**A.** The value was 17.736%.

**Q.** And the “in vitro complex I activity relative to solvent control” value ([2]; 15 µM, single replicate)?
**A.** Its value is 0.309% and 22.340% and 30.559% and 2.751% and 18.041% and 27.005%.

**Q.** What about the “in vitro complex I activity relative to solvent control” value ([2]; 37.5 µM, Mean) of the same compound?
**A.** The value was 16.526%.

**Q.** What about the “in vitro complex I activity relative to solvent control” value ([2]; 37.5 µM, Mean of replicates) of the same compound?
**A.** Its value is 22.254%.

**Q.** What about the “in vitro complex I activity relative to solvent control” value ([2]; 37.5 µM, single replicate) of the same compound?
**A.** The value was 22.531% and 14.928% and 29.304% and 13.442% and 10.195% and 25.942%.

**Q.** What about the “in vitro complex I activity relative to solvent control” value ([2]; 75 µM, Mean) of the same compound?
**A.** The value was 12.171%.

**Q.** And the “in vitro complex I activity relative to solvent control” value ([2]; 75 µM, Mean of replicates)?
**A.** Its value is 14.958%.

**Q.** What about the “in vitro complex I activity relative to solvent control” value ([2]; 75 µM, single replicate) of the same compound?
**A.** The value was 11.008% and 13.246% and 20.619% and 8.371% and 10.450% and 17.691%.

“And” between values parts separate entries of the source, which are not always exact repeats. Equal entries are not always repeated. Where two headings read alike, the source gives them in different places.
